Entries after “also recorded” stand apart in the source; their conditions may differ.
Target: T1, Yes (Homo sapiens, UniProt P07947)
T1 construct: U87 MG cells treated with A77 or DMSO vehicle were lysed in 1×RIPA buffer; endogenous in cells; called human GSCs
Test: Immunoprecipitation/Western blot, phosphorylation state of Yes
Format: cell-based
Conditions: human glioma cells, 500 nm
Description: For immunoprecipitation studies, U87 MG cells treated with A77 or DMSO vehicle were lysed in 1×RIPA buffer containing protease and phosphatase inhibitors (Sigma). Lysates were cleared via centrifugation and were pre-cleared with TrueBlot anti-rabbit IgG beads (eBiosience) to remove non-specific binding. Primary antibodies against Lck, Src, Fyn, Lyn or Yes (Cell Signaling) were added and the lysates were incubated overnight at 4° C. with gentle rotation. The following day, TrueBlot anti-rabbit IgG (eBioscience) beads were added to the lysate and incubated at 4° C. for 2 hours. Immunoprecipitates were washed, solubilized in 2×Laemmli buffer and boiled for 5 minutes. The supernatants were separated on an 8% Bis-Tris SDS-PAGE gel, transferred to nitrocellulose and immunoblotted.

The chains behind the UniProt entries cited, without tags or fusion partners.
UniProt P07947, whole entry: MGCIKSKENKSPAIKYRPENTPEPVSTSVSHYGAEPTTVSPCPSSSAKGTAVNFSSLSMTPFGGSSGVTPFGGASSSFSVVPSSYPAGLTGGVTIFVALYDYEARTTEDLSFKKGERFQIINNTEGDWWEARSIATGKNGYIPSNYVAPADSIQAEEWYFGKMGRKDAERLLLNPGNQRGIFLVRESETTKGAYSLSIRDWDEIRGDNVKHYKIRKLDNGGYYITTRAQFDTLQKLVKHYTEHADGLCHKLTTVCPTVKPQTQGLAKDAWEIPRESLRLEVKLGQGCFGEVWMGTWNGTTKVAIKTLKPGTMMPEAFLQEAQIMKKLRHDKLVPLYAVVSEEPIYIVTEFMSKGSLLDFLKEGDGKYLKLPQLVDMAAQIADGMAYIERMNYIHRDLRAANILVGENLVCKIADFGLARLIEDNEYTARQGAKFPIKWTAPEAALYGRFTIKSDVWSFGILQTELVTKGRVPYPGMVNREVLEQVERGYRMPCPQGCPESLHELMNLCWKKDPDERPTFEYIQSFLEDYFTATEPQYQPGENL

In the case of `COc1cc(-c2nn([C@H]3CC[C@H](N4CCN(C(C)=O)CC4)CC3)c3ncnc(N)c23)ccc1NC(=O)c1cc2ccccc2n1C` [Lck-I, A770041], the “phosphorylation state of Yes” value is reported as “does not affect; also recorded: no effect”.
